Legend:
Galectin-3 = molecular target: T1, Galectin-3 (Homo sapiens, UniProt P17931); experiment: GST pulldown of in vitro translated radiolabeled TRIMs with GST-Galectin-3; type: binding; settings: in vitro translated 35S-Myc-HA-TRIMs, no ULK1 added
T1 construct: made in house; host or cells: Escherichia coli SoluBL21
From the text: (§1) GST-fusion proteins were expressed in Escherichia coli SoluBL21 (Amsbio). GST fusion proteins were purified and immobilized on glutathione-coupled sepharose beads (Amersham Bioscience, Glutathione-sepharose 4 Fast Flow) and pull-down assays with in vitro translated [^35S]-labeled proteins were done as described previously (Pankiv et al., 2007). The [^35S] labeled proteins were produced using the TNT T7 Quick Coupled Transcription/Translation System (Promega) in the presence of [^35S] L-methionine. The proteins were eluted from washed beads by boiling in SDS-PAGE gel loading buffer. separated by SDS-PAGE, and radiolabeled proteins were detected in a Fujifilm bioimaging analyzer BAS-5000 (Fuji).

The chains behind the UniProt entries cited, without tags or fusion partners.
UniProt P17931, whole entry: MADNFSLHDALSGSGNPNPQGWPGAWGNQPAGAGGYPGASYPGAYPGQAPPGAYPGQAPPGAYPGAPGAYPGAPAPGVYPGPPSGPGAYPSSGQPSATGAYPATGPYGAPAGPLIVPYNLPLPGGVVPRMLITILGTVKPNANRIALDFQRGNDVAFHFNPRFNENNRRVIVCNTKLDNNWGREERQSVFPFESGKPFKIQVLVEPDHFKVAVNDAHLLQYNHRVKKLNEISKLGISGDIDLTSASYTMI

Galectin-8 = molecular target: T2, Galectin-8 (Homo sapiens, UniProt O00214); experiment: GST pulldown of in vitro translated radiolabeled TRIMs with GST-Galectin-8; type: binding; settings: in vitro translated 35S-Myc-HA-TRIMs
T2 construct: made in house; host or cells: Escherichia coli SoluBL21
T2 sequence (O00214 1-359 isoform O00214-2): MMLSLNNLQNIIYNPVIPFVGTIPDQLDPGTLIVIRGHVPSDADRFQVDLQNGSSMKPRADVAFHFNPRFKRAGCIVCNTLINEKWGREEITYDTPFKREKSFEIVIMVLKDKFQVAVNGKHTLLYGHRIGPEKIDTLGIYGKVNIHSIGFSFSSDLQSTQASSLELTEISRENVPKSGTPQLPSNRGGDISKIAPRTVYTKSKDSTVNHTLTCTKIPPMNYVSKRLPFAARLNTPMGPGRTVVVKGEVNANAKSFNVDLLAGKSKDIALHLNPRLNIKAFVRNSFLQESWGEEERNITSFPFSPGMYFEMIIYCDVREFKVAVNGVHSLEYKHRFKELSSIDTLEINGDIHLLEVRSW
From the text: as §1

B1: TRIM23: TRIM (tripartite motif) protein tested in GST-Galectin pulldowns (protein, UniProt P36406 1-574, looked up)
E3 ubiquitin-protein ligase …: MATLVVNKLGAGVDSGRQGSRGTAVVKVLECGVCEDVFSLQGDKVPRLLLCGHTVCHDCLTRLPLHGRAIRCPFDRQVTDLGDSGVWGLKKNFALLELLERLQNGPIGQYGAAEESIGISGESIIRCDEDEAHLASVYCTVCATHLCSECSQVTHSTKTLAKHRRVPLADKPHEKTMCSQHQVHAIEFVCLEEGCQTSPLMCCVCKEYGKHQGHKHSVLEPEANQIRASILDMAHCIRTFTEEISDYSRKLVGIVQHIEGGEQIVEDGIGMAHTEHVPGTAENARSCIRAYFYDLHETLCRQEEMALSVVDAHVREKLIWLRQQQEDMTILLSEVSAACLHCEKTLQQDDCRVVLAKQEITRLLETLQKQQQQFTEVADHIQLDASIPVTFTKDNRVHIGPKMEIRVVTLGLDGAGKTTILFKLKQDEFMQPIPTIGFNVETVEYKNLKFTIWDVGGKHKLRPLWKHYYLNTQAVVFVVDSSHRDRISEAHSELAKLLTEKELRDALLLIFANKQDVAGALSVEEITELLSLHKLCCGRSWYIQGCDARSGMGLYEGLDWLSRQLVAAGVLDVA
binding to GST-Galectin-3 in GST pulldown (Galectin-3): bound | binding to GST-Galectin-8 in GST pulldown (Galectin-8): bound

Reference: US12285470B2, “Trim proteins and galectins cooperate and codirect autophagy and are useful in the treatment of autophagy related diseases” (UNM RAINFOREST INNOVATIONS, priority 2016, dated 2025)
